We go through 2 molecules from PMC6324732 (Cancer immunology research, 2018).

Assay [1] deals with HLA-A*02:01 heavy chain / β2-microglobulin (human). Nature of the assay: differential scanning fluorimetry. (Differential scanning fluorimetry follows unfolding on heating by fluorescence.)
In assay [2] the target is biotinylated HLA-A*02:01 heavy chain / β2-microglobulin (human). The assay is described as follows: bead-based flow cytometry dissociation time course. (In general: Flow cytometry measures light scatter and fluorescence of single cells or particles in a stream.)
Assay [3] shares this target. The assay is described as follows: bead-based flow cytometry dissociation time course. The source holds these as a separate data set.

Read-outs that look alike come from different tables or passages of the source.

For the molecule MART-1 anchor-modified 10-mer peptide …, the Tm of the peptide/HLA-A2 complex in assay [1] was 59.3 °C. Consider RMFPNAPYL [WT-1 peptide … (Wilms tumor antigen)], for which the half-life of the complex at 37°C was determined as 15.1 h in assay [2] and 14.7 h in assay [3].
